We go through 1 compound from ChEMBL document CHEMBL4145449, “Synthesis and biological evaluation of novel thiazole- VX-809 hybrid derivatives as F508del correctors by QSAR-based filtering tools” (Eur J Med Chem, 2018).

Protein sequences, listed by entry. Tags and fused reporters are not part of them. Chains listed by the source or under a name are the forms on record and can include a tag or linker.
UniProt P13569, as listed by the source: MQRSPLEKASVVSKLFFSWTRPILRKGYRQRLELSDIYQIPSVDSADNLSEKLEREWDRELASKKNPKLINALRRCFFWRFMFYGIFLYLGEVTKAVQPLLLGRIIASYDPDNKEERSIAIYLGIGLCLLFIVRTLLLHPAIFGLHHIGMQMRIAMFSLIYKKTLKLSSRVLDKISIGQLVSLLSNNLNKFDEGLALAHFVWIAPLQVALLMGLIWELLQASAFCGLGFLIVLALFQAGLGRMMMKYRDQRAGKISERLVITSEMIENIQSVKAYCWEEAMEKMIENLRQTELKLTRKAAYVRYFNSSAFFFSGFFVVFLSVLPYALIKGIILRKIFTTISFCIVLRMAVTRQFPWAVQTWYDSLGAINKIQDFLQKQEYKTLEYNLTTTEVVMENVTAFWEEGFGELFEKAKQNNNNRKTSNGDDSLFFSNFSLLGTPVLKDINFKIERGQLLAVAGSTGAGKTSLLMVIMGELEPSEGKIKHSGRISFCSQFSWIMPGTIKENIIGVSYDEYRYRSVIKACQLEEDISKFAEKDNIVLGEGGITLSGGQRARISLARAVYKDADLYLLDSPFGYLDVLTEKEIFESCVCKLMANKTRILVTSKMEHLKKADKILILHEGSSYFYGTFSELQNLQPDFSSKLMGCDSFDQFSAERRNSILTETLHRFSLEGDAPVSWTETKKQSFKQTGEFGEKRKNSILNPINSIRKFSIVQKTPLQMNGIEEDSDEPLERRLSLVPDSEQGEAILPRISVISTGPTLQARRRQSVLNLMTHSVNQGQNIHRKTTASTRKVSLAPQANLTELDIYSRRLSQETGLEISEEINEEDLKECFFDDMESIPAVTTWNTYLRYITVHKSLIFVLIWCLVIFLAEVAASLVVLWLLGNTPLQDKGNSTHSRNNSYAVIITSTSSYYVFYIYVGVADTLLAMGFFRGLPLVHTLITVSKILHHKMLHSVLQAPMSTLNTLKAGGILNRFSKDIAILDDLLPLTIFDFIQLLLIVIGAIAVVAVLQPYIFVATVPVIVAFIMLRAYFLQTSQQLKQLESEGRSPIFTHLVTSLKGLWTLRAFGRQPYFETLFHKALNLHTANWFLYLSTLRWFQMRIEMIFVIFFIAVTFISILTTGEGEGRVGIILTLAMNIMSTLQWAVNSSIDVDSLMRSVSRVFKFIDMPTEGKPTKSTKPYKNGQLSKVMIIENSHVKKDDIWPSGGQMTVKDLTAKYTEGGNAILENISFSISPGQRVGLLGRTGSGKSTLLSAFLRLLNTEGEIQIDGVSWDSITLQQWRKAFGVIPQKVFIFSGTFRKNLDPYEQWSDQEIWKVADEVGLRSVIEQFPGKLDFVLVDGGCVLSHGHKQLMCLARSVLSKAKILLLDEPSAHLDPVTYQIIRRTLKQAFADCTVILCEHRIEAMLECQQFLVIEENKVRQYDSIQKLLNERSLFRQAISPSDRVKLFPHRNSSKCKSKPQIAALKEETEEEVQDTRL

SMILES strings stand for the structures. pEC50: −log10 of the molar value.

The target of the assay is Cystic fibrosis transmembrane conductance regulator (Homo sapiens, UniProt P13569, F508DEL). In words: Corrector activity at CFTR F508-del mutant (unknown origin) expressed in human CFBE41o cells harboring HS-YFP preincubated for 24 hrs followed by forskolin/genistein stimulation for 30 mins by fluorescence assay. It counts as cell-based. The method in brief:
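After plating (50,000 cells/well, 24 h, 37 °C, 5% CO2), F508del-CFTR/HS-YFP CFBE41o- cells were exposed 24 h to compound, then stimulated 30 min at 37 °C with forskolin (20 μM) + genistein (50 μM). Fluorescence read 2 s before and 12 s after iodide addition (final 100 mM); quenching rate (dF/dt) from exponential fit of final 10 s; compared with DMSO.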

One may read the pEC50 as −log10 of the EC50, conventionally taken in molar units.

Turning to `O=C(Nc1nc(-c2cccc(Cl)c2)cs1)C1(c2ccc3c(c2)OC(F)(F)O3)CC1`, the pEC50 was 5.40.
